In one data set the test system is CYP1A1. Put plainly: CLZD_CYP1A1: Change in expression of CYP1A1 (primary human hepatocytes). The class given is cell-based. To be noted: 24 hr. The method, then:
(§1) This is a collection of multiplexed gene expression assays focused on Phase I and II xenobiotic metabolizing enzymes and transporters. Human primary cell cultures were treated with chemicals at 5 concentrations (0.004-40 [drawing 42] M) for 6, 24 and 48 hr. Concentration- and time-response profiles of chemicals were measured by the expression of key nuclear receptor target genes, activities of CYP1A enzymes (EROD), and cell morphology. Fourteen gene targets were monitored by quantitative nuclease protection assay including: six representative cytochrome P-450 genes, four hepatic transporters, three Phase II conjugating enzymes, and one endogenous metabolism gene involved in cholesterol synthesis. […]
(§2) Multiplexed Gene Expression in Human Primary Hepatocytes: This is a collection of multiplexed gene expression assays focused on Phase I and II metabolic enzymes and transporters. […] Fourteen gene targets were monitored by quantitative nuclease protection assay: six representative cytochrome P450 genes, four hepatic transporters, three Phase II conjugating enzymes, and one endogenous metabolism gene involved in cholesterol synthesis. […]

Another data set relates to CYP1A2. Put plainly: CLZD_CYP1A2: Change in expression of CYP1A2 (primary human hepatocytes). The data set is classed as cell-based. To be noted: 24 hr. The method, then:
as §1, §2

Regarding `O=C(Nc1ccc([N+](=O)[O-])cc1Cl)c1cc(Cl)ccc1O` [row 220], the CLZD_CYP1A1_24 with CYP1A1 came out at 5.154. The CLZD_CYP1A2_24 in the data set with CYP1A2 was 4.956.

The values above are taken from publication PMC3038857, “Using Nuclear Receptor Activity to Stratify Hepatocarcinogens” (PLoS ONE, 2011).
